pKi: −log10 of the molar value. Values joined by “and” are separate entries in the source; they are usually repeats but may differ in a detail not shown here. Equal values may be shown once.
Target: D(2) dopamine receptor (Rattus norvegicus, UniProt P61169)

Protein sequences, listed by entry. Tags and fused reporters are not part of them.
UniProt P61169, whole entry: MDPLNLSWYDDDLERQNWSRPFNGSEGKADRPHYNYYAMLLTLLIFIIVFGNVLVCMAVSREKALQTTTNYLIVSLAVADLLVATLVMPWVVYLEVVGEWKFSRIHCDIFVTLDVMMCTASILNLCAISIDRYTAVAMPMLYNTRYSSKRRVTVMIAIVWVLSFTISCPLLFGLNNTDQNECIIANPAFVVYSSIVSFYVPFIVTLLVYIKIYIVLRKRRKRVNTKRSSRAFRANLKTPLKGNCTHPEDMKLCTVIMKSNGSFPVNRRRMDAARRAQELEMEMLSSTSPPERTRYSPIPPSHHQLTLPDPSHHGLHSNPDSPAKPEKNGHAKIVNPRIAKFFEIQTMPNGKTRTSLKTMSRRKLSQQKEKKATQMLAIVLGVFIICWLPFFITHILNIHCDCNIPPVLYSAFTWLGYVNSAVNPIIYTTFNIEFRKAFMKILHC

SMILES | pKi
CN1CCN2c3ccccc3Cc3ccccc3[C@H]2C1 [MIANSERIN (+)] | 5.77 and 6.17
NCCc1c[nH]c2ccc(O)cc12 [[3H]-5-HT] | 5.10 and < 5.00

From BindingDB's records for doi:10.1002/syn.890150302 (Vanderbilt University, 1993)
